Screening data from PubChem BioAssay.
In the library only some 4.2% were active in any assay of this set; here they are far more common.
ALR H2O2 inh: inhibitors of human sulfhydryl oxidase ALR; AID 485317; inhibition, % (no concentration beside the values); purified ALR, DTT oxidation, H2O2 HRP-luminol luminescence; hit rate 3.8% among 290,000;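 active means mean and each replicate at 75% or more; inconclusive means only one of the two met; inactive means neither met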;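 further: stock transfer was 7.5 nL into about 7.5 µL; 0% = neutral wells and 100% = wells with inactivated enzyme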
MC4R antag cAMP: human MC4R antagonism in cAMP assay. 0.48% of 360,000 active. inhibition, % at 6.5 µM. MC4R-expressing cells, MTII-stimulated cAMP, LANCE TR-FRET. AID 540295;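 active means inhibition above its plate's cutoff, the mean of tested wells on that plate plus 3 SD, cut at about 29% in these data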
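Material: U2OS-MC4R stable cell line | Reagent: Melanotan II challenge after compound preincubation | Doses: One concentration, 6.5 µM nominal | Incubation: 30-min compound preincubation, 1-h Melanotan II challenge, 1-h detection, room temperature | Signal: TR-FRET cAMP assay | Replicates: One well per compound, no replicates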
NALP1 yeast inh: inhibitors of NALP1 inflammasome in yeast | inhibition, % at 10 µM | S. cerevisiae NALP1/ASC/caspase-1 growth, X-gal OD620, 72 h | 0.61% of 280,000 active; in the data active means inhibition mostly above about 24%, no sharp cut-off; inactive means mostly below about 32%
MC4R ag barr: human MC4R agonism via beta-arrestin | P32245 | 0.98% of 360,000 active | activation, % at 8.9 µM | U2OS MC4R beta-arrestin complementation, luminescence; percent of melanotan II response, DMSO zero | AID 540308;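 active means activation above a per-plate cutoff, the mean activation of sample wells on that plate plus 3 SD, cut at about 8% in these data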
HDAC3 inhib: human HDAC3 inhibition; 0.15% of 320,000 active; recombinant HDAC3, fluorogenic peptide/trypsin coupled, fluorescence; inhibition, % at 8.3 µM; in the data active means inhibition above about 26%, passing the limit was not always enough; inconclusive means no clear call, values can overlap the other calls
UUG fidelity: yeast start codon fidelity modulation; activity score, % at 18.7 µM; actives 0.13% (n = 350,000); S. cerevisiae UUG-firefly luciferase reporter, luminescence/redox ratio; AID 602363;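 active means replicate mean at a twofold rise or more, about +100% in these data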;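 further: firefly luciferase made from a UUG start codon reports start codon fidelity; reporter light over untreated wells divided by growth signal over untreated wells; some hits fall short of that in this replicate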
A number is an active result; i = inactive; ? = inconclusive; nt = not tested or not shown.

SMILES	ALR H2O2 inh	MC4R antag cAMP	NALP1 yeast inh	MC4R ag barr	HDAC3 inhib	UUG fidelity
CN(C)CC#Cc1ccc([C@@H]2[C@H](CO)N3CCCCN(C(=O)Cc4ccccn4)C[C@@H]23)cc1	nt	nt	nt	nt	nt	i
c1cncc(CNC2CCCC2)c1	i	i	30	i	i	nt
c1cncc(CNC2=NCCCCC2)c1	nt	i	nt	i	i	i
N#C/C(N)=C(/N)C#N	98	i	nt	i	i	i
O=C(Cc1ccccn1)N1CCCCN2[C@H](CO)[C@@H](c3ccc(Br)cc3)[C@@H]2C1	nt	nt	nt	nt	nt	i
CC1CN=C(Nc2ccc(N(C)C)cc2)S1 (stereo unspecified)	89	i	i	i	i	i
COc1ccc2c(c1)NP(=S)(Oc1ccccc1)N2 (stereo unspecified)	98	i	i	i	i	i
N#Cc1cccc(-c2ccc([C@H]3[C@@H](CO)N4CCCCN(C(=O)Cc5ccccc5)C[C@H]34)cc2)c1	nt	nt	nt	nt	nt	i
CN(C)C1C(=O)C(C(N)=O)=C(O)C2(O)C(=O)C3=C(O)c4c(O)cccc4C(C)(O)C3CC12 (stereo unspecified)	i	i	i	i	i	i
CN(C)[C@@H]1C(=O)C(C(N)=O)=C(O)[C@@]2(O)C(=O)C3=C(O)c4c(O)ccc(Cl)c4[C@@](C)(O)C3C[C@@H]12 (stereo partly specified)	nt	i	132	i	nt	i
O=C(Cc1ccccn1)N1CCCCN2[C@@H](CO)[C@@H](c3ccc(-c4ccccc4F)cc3)[C@@H]2C1	nt	nt	nt	nt	nt	i
COC(=O)C(O)(c1ccc2c(c1)CCCN2)C(F)(F)F (stereo unspecified)	97	i	i	i	i	nt
N#Cc1cccc(-c2ccc([C@@H]3[C@H](CO)N4CCCCN(C(=O)Cc5ccccc5)C[C@@H]34)cc2)c1	nt	nt	nt	nt	nt	i
CCC(C)N1C(=O)/C(=C/c2ccc3c(c2)CCN3CCCCl)C(=O)NC1=S (stereo unspecified)	98	i	i	i	i	nt
Cc1cccc(N2C(=O)NC(=O)/C(=C\c3ccc4c(c3)CCCN4Cc3ccccc3)C2=O)c1	i	i	i	i	i	nt
O=C(Cc1ccccc1)N1CCCCN2[C@H](CO)[C@H](c3ccc(C#Cc4ccccc4)cc3)[C@@H]2C1	nt	nt	nt	nt	nt	i
O=C(Cc1ccccn1)N1CCCCN2[C@H](CO)[C@H](c3ccc(-c4ccc(F)cc4)cc3)[C@H]2C1	nt	nt	nt	nt	nt	i
O=C(Cc1ccccc1)N1CCCCN2[C@H](CO)[C@H](c3ccc(C#CC4(O)CCCC4)cc3)[C@H]2C1	nt	nt	nt	nt	nt	i
O=c1[nH]c(=S)[nH]c(O)c1N=Nc1ccc(S(=O)(=O)N2CCOCC2)cc1	95	i	i	i	?	nt
O=c1[nH]c(O)c(N=Nc2ccc(S(=O)(=O)N3CCOCC3)cc2)c(=O)[nH]1	i	i	i	i	i	nt
COC(=O)[C@@H]1[C@@H](CO)[C@@H]2Cn3c(ccc(/C=C/c4ccccc4)c3=O)[C@H]1N2C(=O)C1CCC1	nt	nt	nt	nt	nt	i
O=c1[nH]c(=O)n(-c2ccccc2F)c(O)c1/C=C1\C=Nc2ccccc21	96	i	i	i	nt	nt
COc1ccc(-n2c(O)c(/C=C3\C=Nc4ccc(Br)cc43)c(=O)[nH]c2=O)c(OC)c1	97	i	i	i	i	i
Cc1cc2c(C(C)C)c(O)c(O)c(C=O)c2c(O)c1-c1c(C)cc2c(C(C)C)c(O)c(O)c(C=O)c2c1O	nt	i	i	9.5	nt	i
COc1ccc(C#Cc2ccc([C@H]3[C@@H](CO)N4CCCCN(C(=O)Cc5ccccc5)C[C@@H]34)cc2)cc1	nt	nt	nt	nt	nt	i
SMILES	ALR H2O2 inh	MC4R antag cAMP	NALP1 yeast inh	MC4R ag barr	HDAC3 inhib	UUG fidelity
C[C@@H]1CC[C@@]2(NC1)O[C@H]1C[C@H]3[C@@H]4CC=C5C[C@@H](O)CC[C@]5(C)[C@H]4CC[C@]3(C)[C@H]1[C@@H]2C	i	i	36	i	i	i
c1ccc(CCN2CCC(N3CCN(c4ccccc4)CC3)CC2)cc1	99	i	i	i	i	i
CCCCN(Cc1ccccc1)C1CCN(CCc2ccccc2)CC1	nt	i	48	i	i	nt
CN(C)C(=O)[C@@H]1[C@@H](CO)[C@@H]2Cn3c(cccc3=O)[C@H]1N2CC1CC1	nt	nt	nt	nt	nt	i
CCCCN=C[C@]12CCC(O)CC1(O)CCC1[C@@H]2CC[C@]2(C)[C@H](C3C=CC(=O)O3)CCC12O (stereo partly specified)	i	i	i	35	i	i
C[C@]12CC[C@H]3[C@@H](CC[C@]4(O)C[C@@H](O)CC[C@]34C=O)[C@@]1(O)CC[C@@H]2C1=CC(=O)OC1	i	i	nt	27	i	i
CC12CCC3C(CCC4(O)CC(O)CCC34C=O)C1(O)CCC2C1=CC(=O)OC1 (stereo unspecified)	nt	i	nt	21	nt	nt
C[C@H]1O[C@@H](OC2CC[C@]3(C=O)[C@H]4CC[C@]5(C)[C@@H](C6=CC(=O)OC6)CC[C@]5(O)[C@@H]4CC[C@]3(O)C2)CC2OC(C)(C)OC21 (stereo partly specified)	i	i	i	40	i	nt
CC12CC[C@H]3[C@@H](CCC4(O)C[C@H](O)CCC34/C=N/NC(=O)c3ccccc3Cl)C1(O)CCC2C1=CC(=O)OC1 (stereo partly specified)	i	i	nt	i	i	nt
O=C(Cc1ccccc1)N1CCCCN2[C@@H](CO)[C@H](c3ccc(C#Cc4ccccc4)cc3)[C@@H]2C1	nt	nt	nt	nt	nt	i
O=C(Cc1ccccn1)N1CCCCN2[C@H](C1)[C@@H](c1ccc(-c3ccccc3)cc1)[C@@H]2CO	nt	nt	nt	nt	nt	i
C[C@]12CCC3C(CCC4=CC(O)CC[C@@]43/C=N/O)C1(O)CCC2C1=CC(=O)OC1 (stereo partly specified)	i	i	i	39	i	nt
CC12CCC3C(CCC4(O)CC(O)CCC34C=NO)C1(O)CCC2C1=COC(=O)C1 (stereo unspecified)	nt	i	nt	26	nt	nt
O=C(Cc1ccccn1)N1CCCCN2[C@H](CO)[C@H](c3ccc(Br)cc3)[C@@H]2C1	nt	nt	nt	nt	nt	i
O=C(Cc1cccnc1)N1CCCCN2[C@H](CO)[C@H](c3ccc(/C=C/c4ccccc4)cc3)[C@@H]2C1	nt	nt	nt	nt	nt	i
N#Cc1ccc(-c2ccc([C@H]3[C@@H](CO)N4CCCCN(C(=O)Cc5ccccc5)C[C@@H]34)cc2)cc1	nt	nt	nt	nt	nt	i
NNC(=O)c1ccc(O)cc1	95	i	nt	i	i	i
CC(Cc1ccccc1Sc1ccccc1O)N(C)C (stereo unspecified)	98	i	i	i	i	i
O=C(Cc1ccccn1)N1CCCCN2[C@@H](CO)[C@H](c3ccc(-c4ccccc4F)cc3)[C@@H]2C1	nt	nt	nt	nt	nt	i
N=C(N)c1c(O)n(C2CCCCC2)c(=O)n(C2CCCCC2)c1=O	i	i	i	i	28	nt
O=C(Cc1ccccn1)N1CCCCN2[C@H](CO)[C@@H](c3ccc(-c4ccc(F)cc4)cc3)[C@@H]2C1	nt	nt	nt	nt	nt	i
Fc1ccc(C(OCCN2CCCC2)c2ccc(Br)cc2)cc1 (stereo unspecified)	i	i	47	i	i	i
